Results on 31 compounds are retold here after PubChem BioAssay AID1461 (National Center for Advancing Translational Sciences (NCATS), 2008).

Sequences of proteins named here, by UniProt entry; tags and fusion partners are left off. A change or cut given only in a name is not applied to a line headed by its entry.
UniProt Q6W5P4: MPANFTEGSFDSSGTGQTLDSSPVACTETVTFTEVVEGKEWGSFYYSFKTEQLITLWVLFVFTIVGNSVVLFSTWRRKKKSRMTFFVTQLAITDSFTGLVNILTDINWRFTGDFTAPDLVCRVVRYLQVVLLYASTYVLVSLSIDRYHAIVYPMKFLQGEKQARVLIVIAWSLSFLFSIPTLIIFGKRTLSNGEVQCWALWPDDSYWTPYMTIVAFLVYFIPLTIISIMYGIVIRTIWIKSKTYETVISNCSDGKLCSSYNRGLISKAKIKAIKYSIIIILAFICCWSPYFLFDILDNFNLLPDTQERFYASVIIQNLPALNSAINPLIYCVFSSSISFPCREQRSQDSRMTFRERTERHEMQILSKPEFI

The entries are a selection whose mix differs from that of the whole data set. Inconclusive results are not listed. The source made the active and inactive calls. Calls follow the shape of the dose curve; as a rule, active = well fitted inhibition curve with a large enough effect; inconclusive = small, poorly fitted or top-dose-only effect, or effect the other way; inactive = no such curve, though single readings can be large or run the other way.

The assay has as its target Neuropeptide S receptor (Homo sapiens) (UniProt Q6W5P4). As to the kind of experiment: qHTS Assay for Antagonists of the Neuropeptide S Receptor: cAMP Signal Transduction. Also: nearly all actives have a fitted effect of over 50% in size. The conditions noted are these: CHO-NPSR cells, cAMP TR-FRET, antagonist mode.
The mark [1] stands for this setting: at 38.3 µM (top of the series) unless noted.
% is scaled to controls: 0 for no effect and ±100 for the full control effect.

For `O=P(Nc1nccs1)(Oc1ccccc1)Oc1ccccc1`, under setting [1], the activity change, negative = inhibition is inactive: 6.2%.
Turning to `Nc1ccccc1[As](=O)(O)c1ccccc1`, the activity change, negative = inhibition under setting [1] is inactive: -20.4%.
The same measure, in the same setting: under `O=C(O)COc1ccc([As](=O)(O)O)cc1[N+](=O)[O-]` stands inactive: 4.61% [at 7.67 µM].
For `CCCOP(=S)(Nc1nc(N)cc(=O)[nH]1)OCCC`, under setting [1], the activity change, negative = inhibition was inactive: 2.4%.
Still for that read-out and setting: under `Nc1cccc2c([As](=O)(O)O)cccc12` stands inactive: -6.47%; under `Cc1ccc(NCCc2c([N+](=O)[O-])cc([N+](=O)[O-])cc2[N+](=O)[O-])cc1`, inactive: -0.665% [at 46.1 µM]; under `COc1cc(C2NCCC3(OCCO3)C2(C)C)cc(OC)c1OC` (configuration not stated), inactive: 12.7%.
Regarding `CCOP(=O)(Nc1cccc2ccccc12)OCC`, the activity change, negative = inhibition under setting [1] is inactive: 0.695%.
Still for that read-out and setting: with `COc1cc(C(=O)NCC2(N3CCOCC3)CCCCC2)cc(Cl)c1OC(C)C` the figure was inactive: -34.7%; with `O=[As](O)(O)c1cccnc1`, inactive: -15.1%; with `O=C(OC1CN2CCC1CC2)c1ccc(Cl)cc1` (configuration not stated), inactive: -3.13% [at 7.67 µM].
For the compound `CN(C(=O)Cc1ccc(Cl)c(Cl)c1)[C@@H]1CC[C@]2(CCCO2)C[C@H]1N1CCCC1`, under setting [1], the activity change, negative = inhibition was inactive: -2.94% [at 46.1 µM].
`O=[As](O)(c1cccc(O)c1)c1cccc(O)c1`: under setting [1], the activity change, negative = inhibition is inactive: -4.17%.
As to `Cc1cccc(OCC(=O)OC2CN3CCC2CC3)c1` (configuration not stated), the activity change, negative = inhibition under setting [1] is inactive: 6.47% [at 46.1 µM].
The same measure, in the same setting: under `O=[As](O)(c1ccccc1Br)c1ccccc1Br` stands inactive: -12.2%; under `CC(C)/C=N\N=C(\N)N[N+](=O)[O-]`, inactive: 20.3%.
On to `CN(C(=O)Cc1ccc(Cl)c(Cl)c1)[C@@H]1CCCC[C@H]1N1CCCC1`, for which the activity change, negative = inhibition (at 38.3 µM (top of the series)) was inactive: -10.8% and the activity change, negative = inhibition (at 46.1 µM (top of the series)) is inactive: 10.6%.
Turning to `CN(CCCl)Cc1cc(Cl)c(NC2=NCCN2)c(Cl)c1`, under setting [1], the activity change, negative = inhibition was inactive: -11.2% [at 46.1 µM].
Still for that read-out and setting: under `CCOP(=O)(Nc1ccc(C)cn1)OCC` stands inactive: 15%; under `O=P1(Nc2ccccn2)COc2ccccc2OC1`, inactive: -5.46% [at 46.1 µM]; under `Clc1n[nH]nc1-c1nn[nH][15n]1`, inactive: -5.47% [at 46.1 µM].
The same measure, in the same setting: with `CC(C)(C)C(=O)NC(Sc1ncccn1)C(Cl)(Cl)Cl` (configuration not stated) the figure was inactive: -4.2%; with `O=P1(Nc2ncccn2)COc2ccccc2OC1`, inactive: 12.6% [at 46.1 µM]; with `O=P1(Nc2ccc(Br)cn2)COc2ccccc2OC1`, inactive: -8.1% [at 46.1 µM].
As to `O=[As](O)(c1cccs1)c1cccs1`, the activity change, negative = inhibition under setting [1] is inactive: 15.6%.
On the same count and under the same terms, under `Cc1ccc(OCC(=O)OC2CN3CCC2CC3)cc1` (configuration not stated) stands inactive: -3.71% [at 46.1 µM]; under `Nc1cccc([As](=O)(O)c2ccccc2)c1`, inactive: -23.8%; under `Cc1nn(-c2ccccc2)c2c1P(=O)(N1CCOCC1)N(C)C(c1ccccc1)=N2` (configuration not stated), inactive: -7.01% [at 46.1 µM].
Regarding `CC1CCC(C(C)C)C(OP(=O)(Nc2ccccn2)c2ccccc2)C1` (configuration not stated), under setting [1], the activity change, negative = inhibition was inactive: -59.8%.
Turning to `O=C(/C=C/c1ccccc1)OC1CN2CCC1CC2` (configuration not stated), under setting [1], the activity change, negative = inhibition was inactive: -14.3%.
Still for that read-out and setting: under `CN(C)C1(CNC(=O)c2ccc(S(C)(=O)=O)cc2)CCCCC1` stands inactive: -11.1%.
